By UniProt entry, the sequences of proteins in these tests, tags left out.
UniProt Q9UL17, whole entry: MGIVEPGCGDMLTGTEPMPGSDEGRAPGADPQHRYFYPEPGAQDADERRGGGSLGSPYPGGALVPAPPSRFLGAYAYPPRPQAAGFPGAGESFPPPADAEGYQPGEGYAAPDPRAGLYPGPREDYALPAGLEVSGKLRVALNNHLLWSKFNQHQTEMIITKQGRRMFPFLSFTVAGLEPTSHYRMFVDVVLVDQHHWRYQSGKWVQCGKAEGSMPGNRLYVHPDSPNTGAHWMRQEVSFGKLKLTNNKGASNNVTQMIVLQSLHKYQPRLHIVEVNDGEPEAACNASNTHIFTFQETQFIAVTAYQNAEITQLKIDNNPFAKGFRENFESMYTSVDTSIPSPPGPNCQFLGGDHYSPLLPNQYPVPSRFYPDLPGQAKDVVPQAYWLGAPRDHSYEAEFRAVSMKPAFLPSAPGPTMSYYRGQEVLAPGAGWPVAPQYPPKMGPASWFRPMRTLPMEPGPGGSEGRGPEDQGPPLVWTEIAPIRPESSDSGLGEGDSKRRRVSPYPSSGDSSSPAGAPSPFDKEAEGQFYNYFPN

According to patent publication US7666875B2, “Hydantoin compounds” (Eisai R&D Management Co., Ltd., priority 2005, dated 2010):

target: human T-bet (Homo sapiens, UniProt Q9UL17); test: HEKT-bet-luc assay (T-bet dependent luciferase reporter in engineered HEK cells); settings: Table 2, compound 24 hours, IC50 normalized to reference ER-213038
Experimental: HEKT-bet-luc assay: This assay measures a T-bet dependent reporter (luciferase) activity in engineered HEK cells that express a human T-bet and a T-box responsive element driving luciferase reporter. HEKT-bet cells were plated at 2×10^4/well in 96-well plate and compound was added into cell culture for 24 hours. Luciferase activity was measured by adding 50 μl of Steady-Glo reagent (Promega) and samples were read in Victor V reader (PerkinElmer). The IC50 values were calculated utilizing a maximum value corresponding to the amount of luciferase in the absence of a test compound and a minimum value corresponding to a test compound value obtained at maximum inhibition.
Determination of Normalized HEKT-bet IC50 values: Compounds were assayed in microtiter plates. Each plate included a reference compound which was ER-213038. The un-normalized IC50 value for a particular compound was divided by the IC50 value determined for the reference compound in the same microtiter plate to provide a relative potency value. The relative potency value was then multiplied by the established potency of the reference compound to provide the normalized HEKT-bet IC50 value. In this assay, the established potency for ER-213038 was 0.190 μM. The IC50 values provided herein were obtained using this normalization method.

IC50 [nM]	SMILES
83	COCCN1C(=O)N(Cc2cccc(OC(F)(F)F)c2)C(=O)C12CCN(Cc1cc(OC)cc(OC)c1)CC2
1060	CN1C(=O)N(CCCc2ccncc2)C(=O)C12CCN(Cc1cc3ccccc3s1)CC2
346	COCCN1C(=O)N(Cc2cccc(OC)c2)C(=O)C12CCN(Cc1cccc3c1oc1ccccc13)CC2
128	COCCN1C(=O)N(Cc2cc(OC)c(OC)c(OC)c2)C(=O)C12CCN(Cc1cc(OC)cc(OC)c1)CC2
112	CCN1C(=O)N(Cc2cc(OC)cc(OC)c2)C(=O)C12CCN(Cc1cc(OC)cc(OC)c1)CC2
232	CCN1C(=O)N(Cc2ccc3c(c2)OCO3)C(=O)C12CCN(Cc1cc(OC)cc(OC)c1)CC2

same assay, conditions: Table 2, compound 24 hours, IC50 normalized to reference ER-213038, tested form: TFA

SMILES	IC50 [nM]
COc1cccc(CN2C(=O)N(CCc3c[nH]c4ccccc34)C3(CCN(Cc4cc(OC)cc(OC)c4)CC3)C2=O)c1	389
COCCN1C(=O)N(CCCCc2ccccc2)C(=O)C12CCN(Cc1ccccc1)CC2	603
COCCN1C(=O)N(Cc2cccc(OC)c2)C(=O)C12CCN(Cc1cn(C)c3ccccc13)CC2	285
COCCN1C(=O)N(Cc2cccc(OC)c2)C(=O)C12CCN(C/C=C/c1ccccc1)CC2	1140

Next, values leading:

IC50 [nM]	SMILES
59	CCN1C(=O)N(C/C=C/c2ccccc2)C(=O)C12CCN(Cc1cccc(OC)c1)CC2
267	COCCN1C(=O)N(Cc2cccc(OC)c2)C(=O)C12CCN(Cc1ccnc3ccccc13)CC2
264	COc1cccc(CN2C(=O)N(CCn3cccc3)C3(CCN(Cc4cc(OC)cc(OC)c4)CC3)C2=O)c1
78	COc1cc(CN2CCC3(CC2)C(=O)N(C/C=C/c2ccccc2)C(=O)N3Cc2ccc3c(c2)nnn3C)cc(OC)c1
244	COc1cc(CN2CCC3(CC2)C(=O)N(/C=C/Cc2ccccc2)C(=O)N3CCO)cc(OC)c1
59	CCN1C(=O)N(C/C=C/c2ccccc2)C(=O)C12CCN(Cc1cc(OC)cc(OC)c1)CC2
150	COc1cccc(CN2C(=O)N(CC=C(C)C)C3(CCN(Cc4cc(OC)cc(OC)c4)CC3)C2=O)c1
106	Cn1nnc2cc(CN3C(=O)N(C/C=C/c4ccccc4)C(=O)C34CCN(Cc3cccc5ccccc35)CC4)ccc21
284	COCCN1C(=O)N(Cc2cccc(OC)c2)C(=O)C12CCN(Cc1nccc3ccccc13)CC2
110	CCN1C(=O)N(C/C=C/c2ccccc2)C(=O)C12CCN(Cc1cccc3ccccc13)CC2
81	CCCN1C(=O)N(C/C=C/c2cccc(OC)c2)C(=O)C12CCN(Cc1ccccc1)CC2
58	COCCN1C(=O)N(Cc2cccc(OC)c2)C(=O)C12CCN(Cc1ccc(OC)c3ccccc13)CC2
102	COCCN1C(=O)N(C/C=C/c2ccccc2OC)C(=O)C12CCN(Cc1ccccc1)CC2
66	COCCN1C(=O)N(C/C=C/c2ccccc2)C(=O)C12CCN(Cc1cccc(C)c1)CC2
151	CCN1C(=O)N(C/C=C/c2ccccc2)C(=O)C12CCN(Cc1ccc3ccccc3c1)CC2
163	COCCN1C(=O)N(C/C=C/c2ccccc2)C(=O)C12CCN(Cc1ccc3ccccc3c1)CC2
